The entries are a selection whose mix differs from that of the whole data set. Calls of active or inactive are those of the source.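 The calls were made as follows: active = calcium response below the same-plate mean of wells given acetylcholine alone at its 80%-effect dose, minus 3 SD; inactive = the rest.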

Protein sequences, listed by entry. Tags and fused reporters are not part of them. Lines headed by an entry give the natural chain unless they say otherwise; changes in a name come on top.
UniProt P08482: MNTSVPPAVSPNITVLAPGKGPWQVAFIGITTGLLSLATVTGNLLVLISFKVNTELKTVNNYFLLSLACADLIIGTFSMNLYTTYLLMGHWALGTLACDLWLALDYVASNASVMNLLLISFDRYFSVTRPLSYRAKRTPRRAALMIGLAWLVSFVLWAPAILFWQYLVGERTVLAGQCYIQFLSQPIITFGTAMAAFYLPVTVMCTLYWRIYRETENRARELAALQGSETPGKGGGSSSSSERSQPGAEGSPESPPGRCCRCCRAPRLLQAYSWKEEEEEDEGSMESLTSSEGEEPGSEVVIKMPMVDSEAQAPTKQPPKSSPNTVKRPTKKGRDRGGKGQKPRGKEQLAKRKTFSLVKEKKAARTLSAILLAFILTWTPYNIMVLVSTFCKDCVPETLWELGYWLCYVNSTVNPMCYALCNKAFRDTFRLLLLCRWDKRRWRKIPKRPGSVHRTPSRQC

The target in the assay is Muscarinic acetylcholine receptor M1 (Rattus norvegicus) (UniProt P08482). Briefly: blockers of ACh-evoked M1 calcium signal – CHO cells, Fluo-4 calcium, duplicate, confirmation (AID 677).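 Also: raw fluorescence intensity difference in arbitrary instrument units and not normalized.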 As to conditions: ACh EC80 antagonism, at 10 µM, stronger effect = lower value.
As for `C[N+]1(C)[C@@H]2CC(OC(=O)[C@H](CO)c3ccccc3)C[C@H]1[C@@H]1O[C@@H]12` (stereo partly specified), the calcium response (max-min fluorescence) was active: 15.8.

Source of the values: PubChem BioAssay AID677 (Vanderbilt High Throughput Screening Facility, 2007).
